The entries are a selection whose mix differs from that of the whole data set. The source made the active and inactive calls.
Assay: budding yeast growth modifiers under rapamycin – strain BY4716, OD600, 96 h, primary screen (AID 1091); further: test concentration not given here
Settings: S. cerevisiae BY4716 + rapamycin, higher = more signal, called active from +8 up or from −8 down

Row | Structure (SMILES) | z-score
1 | COP(=O)(/N=C1/CC(CCCO)=CC(C2CC2)N1Cc1cc2c(cc1Br)OCO2)OC (stereo not given) | inactive: -1.36
2 | O=P(/N=C1/CC(CCCO)=CC(C2CC2)N1Cc1cc2c(cc1Br)OCO2)(Oc1ccccc1)Oc1ccccc1 (stereo not given) | inactive: -2.07
3 | COP(=O)(/N=C1/CC(CCCO)=CC(C2CC2)N1Cc1cccc(OC(F)(F)F)c1)OC (stereo not given) | inactive: -1.15
4 | CN1/C(=N\P(=O)(Oc2ccccc2)Oc2ccccc2)CC(CCCO)=CC1c1cccs1 (stereo not given) | inactive: 0.224
5 | O=P(/N=C1/CC(CCCO)=CC(c2cccs2)N1Cc1cccc(OC(F)(F)F)c1)(Oc1ccccc1)Oc1ccccc1 (stereo not given) | inactive: -2.1
6 | CN1/C(=N\P(=O)(Oc2ccccc2)Oc2ccccc2)CC(c2ccc(CO)cc2)=CC1C1CC1 (stereo not given) | inactive: 2.16
7 | CC1C=C(CCCO)C/C(=N/P(=O)(Oc2ccccc2)Oc2ccccc2)N1Cc1cccc(OC(F)(F)F)c1 (stereo not given) | inactive: 1.08
8 | O=P(/N=C1/CC(CCCO)=CC(c2ccc(CN3CCCC3)cc2)N1Cc1cc2c(cc1Br)OCO2)(Oc1ccccc1)Oc1ccccc1 (stereo not given) | inactive: -1.06
9 | COP(=O)(/N=C1/CC(CCCO)=CC(c2ccc(CN3CCCC3)cc2)N1Cc1cc2c(cc1Br)OCO2)OC (stereo not given) | inactive: -1.55
10 | O=P(/N=C1/CC(CCCO)=CC(C2CC2)N1Cc1cccc(OC(F)(F)F)c1)(Oc1ccccc1)Oc1ccccc1 (stereo not given) | inactive: -1.25
11 | COP(=O)(/N=C1/CC(c2ccc(CO)cc2)=CC(c2cccs2)N1C)OC (stereo not given) | inactive: 2.54
12 | O=P(/N=C1/CC(c2ccc(CO)cc2)=CC(c2cccs2)N1Cc1cccc(OC(F)(F)F)c1)(Oc1ccccc1)Oc1ccccc1 (stereo not given) | inactive: 4.84
13 | O=P(/N=C1/CC(c2ccc(CO)cc2)=CC(C2CC2)N1Cc1cc2c(cc1Br)OCO2)(Oc1ccccc1)Oc1ccccc1 (stereo not given) | inactive: 2.27
14 | CN1/C(=N\P(=O)(Oc2ccccc2)Oc2ccccc2)CC(CCCO)=CC1c1ccc(CN2CCCC2)cc1 (stereo not given) | inactive: -0.122
15 | COP(=O)(/N=C1/CC(CCCO)=CC(c2ccc(CN3CCCC3)cc2)N1Cc1cccc(OC(F)(F)F)c1)OC (stereo not given) | inactive: -0.97
16 | O=P(/N=C1/CC(CCCO)=CC(c2cccs2)N1Cc1cc2c(cc1Br)OCO2)(Oc1ccccc1)Oc1ccccc1 (stereo not given) | inactive: -1.9
17 | COP(=O)(/N=C1/CC(c2ccc(CO)cc2)=CC(C2CC2)N1Cc1sc2ccccc2c1Cl)OC (stereo not given) | inactive: -1.57
18 | CN1/C(=N\P(=O)(Oc2ccccc2)Oc2ccccc2)CC(c2ccc(CO)cc2)=CC1c1cccs1 (stereo not given) | inactive: 4.04
19 | COP(=O)(/N=C1/CC(CCCO)=CC(c2cccs2)N1C)OC (stereo not given) | inactive: -1.42
20 | COP(=O)(/N=C1/CC(CCCO)=CC(c2ccc(CN3CCCC3)cc2)N1C)OC (stereo not given) | inactive: -0.545
21 | COP(=O)(/N=C1/CC(CCCO)=CC(C2CC2)N1C)OC (stereo not given) | inactive: -0.385
22 | COP(=O)(/N=C1/CC(CCCO)=CC(C)N1Cc1cccc(OC(F)(F)F)c1)OC (stereo not given) | inactive: 0.182
23 | COP(=O)(/N=C1/CC(c2ccc(CO)cc2)=CC(C2CC2)N1C)OC (stereo not given) | inactive: 1.04
24 | COP(=O)(/N=C1/CC(CCCO)=CC(C2CC2)N1Cc1sc2ccccc2c1Cl)OC (stereo not given) | inactive: -1.42
25 | O=P(/N=C1/CC(CCCO)=CC(C2CC2)N1Cc1sc2ccccc2c1Cl)(Oc1ccccc1)Oc1ccccc1 (stereo not given) | inactive: -0.869
26 | COP(=O)(/N=C1/CC(c2ccc(CO)cc2)=CC(C2CC2)N1Cc1cc2c(cc1Br)OCO2)OC (stereo not given) | inactive: -0.465
27 | COP(=O)(/N=C1/CC(CCCO)=CC(c2ccc(CN3CCCC3)cc2)N1Cc1sc2ccccc2c1Cl)OC (stereo not given) | inactive: -1.14
28 | CN1/C(=N\P(=O)(Oc2ccccc2)Oc2ccccc2)CC(CCCO)=CC1C1CC1 (stereo not given) | inactive: -1.33
29 | O=P(/N=C1/CC(CCCO)=CC(c2ccc(CN3CCCC3)cc2)N1Cc1sc2ccccc2c1Cl)(Oc1ccccc1)Oc1ccccc1 (stereo not given) | inactive: -2.35
30 | O=P(/N=C1/CC(c2ccc(CO)cc2)=CC(C2CC2)N1Cc1sc2ccccc2c1Cl)(Oc1ccccc1)Oc1ccccc1 (stereo not given) | inactive: 0.498

Source: PubChem BioAssay AID1091 (ChemBank, 2008)
